PubChem BioAssay (Tox21)
Only results without a clear call are listed here; the source files them as inconclusive. Unless noted, calls follow the shape of the dose curve; as a rule, active = well fitted curve in the direction sought with a large enough effect in the repeat runs; inconclusive = weak or mixed curves; inactive = no such curve, though single readings can be large; an effect the other way counts as inactive or inconclusive.

By UniProt entry, the sequences of proteins in these tests, tags left out. Where a name states a change or a piece, a line headed by the entry shows the natural chain unless it says otherwise.
UniProt P11473: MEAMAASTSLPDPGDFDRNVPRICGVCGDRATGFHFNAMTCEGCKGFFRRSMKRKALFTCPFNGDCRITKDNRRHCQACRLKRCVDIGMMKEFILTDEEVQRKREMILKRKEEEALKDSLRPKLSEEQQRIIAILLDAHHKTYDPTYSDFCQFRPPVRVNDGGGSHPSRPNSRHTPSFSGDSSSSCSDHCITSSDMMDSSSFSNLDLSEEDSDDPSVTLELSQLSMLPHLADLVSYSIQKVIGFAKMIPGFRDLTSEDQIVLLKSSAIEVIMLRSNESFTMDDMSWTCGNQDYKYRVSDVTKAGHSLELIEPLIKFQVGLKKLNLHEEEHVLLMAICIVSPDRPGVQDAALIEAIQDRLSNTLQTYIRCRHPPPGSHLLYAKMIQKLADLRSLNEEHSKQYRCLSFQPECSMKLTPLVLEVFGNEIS
UniProt P10635, whole entry, looked up: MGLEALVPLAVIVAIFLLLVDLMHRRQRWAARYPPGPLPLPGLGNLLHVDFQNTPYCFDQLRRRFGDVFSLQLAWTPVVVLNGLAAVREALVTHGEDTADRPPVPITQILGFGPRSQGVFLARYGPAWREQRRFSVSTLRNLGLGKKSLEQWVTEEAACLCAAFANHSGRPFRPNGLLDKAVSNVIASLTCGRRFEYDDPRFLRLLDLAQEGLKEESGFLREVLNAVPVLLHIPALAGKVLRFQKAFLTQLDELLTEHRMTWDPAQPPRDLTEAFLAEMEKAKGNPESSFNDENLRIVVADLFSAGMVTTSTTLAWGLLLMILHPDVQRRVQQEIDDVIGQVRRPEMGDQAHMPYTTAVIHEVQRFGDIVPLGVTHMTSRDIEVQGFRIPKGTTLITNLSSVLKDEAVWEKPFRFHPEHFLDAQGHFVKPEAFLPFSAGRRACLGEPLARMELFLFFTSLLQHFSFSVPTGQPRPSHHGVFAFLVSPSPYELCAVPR
UniProt P33261, whole entry, looked up: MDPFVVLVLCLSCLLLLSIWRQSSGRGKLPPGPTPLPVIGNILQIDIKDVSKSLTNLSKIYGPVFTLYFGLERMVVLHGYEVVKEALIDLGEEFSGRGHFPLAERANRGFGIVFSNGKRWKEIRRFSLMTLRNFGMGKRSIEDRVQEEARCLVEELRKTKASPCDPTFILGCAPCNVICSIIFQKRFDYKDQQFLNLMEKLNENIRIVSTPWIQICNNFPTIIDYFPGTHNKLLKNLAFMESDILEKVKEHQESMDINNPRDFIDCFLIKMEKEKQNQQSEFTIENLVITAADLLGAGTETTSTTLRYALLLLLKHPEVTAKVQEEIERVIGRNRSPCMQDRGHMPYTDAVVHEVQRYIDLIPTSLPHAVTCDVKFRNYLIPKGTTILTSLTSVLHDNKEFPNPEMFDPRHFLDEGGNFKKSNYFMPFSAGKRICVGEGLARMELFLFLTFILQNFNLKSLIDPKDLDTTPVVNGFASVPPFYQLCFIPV
UniProt P11712, whole entry, looked up: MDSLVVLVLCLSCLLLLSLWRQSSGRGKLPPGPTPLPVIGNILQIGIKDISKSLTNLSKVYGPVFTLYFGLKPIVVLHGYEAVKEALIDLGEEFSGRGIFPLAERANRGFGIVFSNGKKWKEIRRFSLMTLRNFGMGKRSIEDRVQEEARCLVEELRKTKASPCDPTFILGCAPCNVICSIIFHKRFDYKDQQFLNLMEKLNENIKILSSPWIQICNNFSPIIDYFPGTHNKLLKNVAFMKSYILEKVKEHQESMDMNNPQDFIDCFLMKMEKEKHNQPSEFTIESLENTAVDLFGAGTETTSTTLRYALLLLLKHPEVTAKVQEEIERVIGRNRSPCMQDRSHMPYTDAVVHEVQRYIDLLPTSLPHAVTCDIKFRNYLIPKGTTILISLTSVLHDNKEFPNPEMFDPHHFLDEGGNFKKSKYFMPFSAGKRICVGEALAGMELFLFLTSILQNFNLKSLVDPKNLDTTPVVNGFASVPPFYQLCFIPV
UniProt Q03181: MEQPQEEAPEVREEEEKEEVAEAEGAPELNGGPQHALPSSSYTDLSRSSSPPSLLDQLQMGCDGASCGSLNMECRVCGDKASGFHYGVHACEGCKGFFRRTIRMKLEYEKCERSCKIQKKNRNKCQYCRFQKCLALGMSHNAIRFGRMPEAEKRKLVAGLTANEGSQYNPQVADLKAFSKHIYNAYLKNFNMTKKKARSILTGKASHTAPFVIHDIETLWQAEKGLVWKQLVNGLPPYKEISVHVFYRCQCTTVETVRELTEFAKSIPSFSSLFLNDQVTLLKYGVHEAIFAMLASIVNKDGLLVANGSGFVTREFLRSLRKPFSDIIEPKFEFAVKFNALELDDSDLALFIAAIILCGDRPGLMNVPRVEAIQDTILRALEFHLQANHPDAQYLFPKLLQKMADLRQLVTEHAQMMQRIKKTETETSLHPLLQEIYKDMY
UniProt Q92731, whole entry, looked up: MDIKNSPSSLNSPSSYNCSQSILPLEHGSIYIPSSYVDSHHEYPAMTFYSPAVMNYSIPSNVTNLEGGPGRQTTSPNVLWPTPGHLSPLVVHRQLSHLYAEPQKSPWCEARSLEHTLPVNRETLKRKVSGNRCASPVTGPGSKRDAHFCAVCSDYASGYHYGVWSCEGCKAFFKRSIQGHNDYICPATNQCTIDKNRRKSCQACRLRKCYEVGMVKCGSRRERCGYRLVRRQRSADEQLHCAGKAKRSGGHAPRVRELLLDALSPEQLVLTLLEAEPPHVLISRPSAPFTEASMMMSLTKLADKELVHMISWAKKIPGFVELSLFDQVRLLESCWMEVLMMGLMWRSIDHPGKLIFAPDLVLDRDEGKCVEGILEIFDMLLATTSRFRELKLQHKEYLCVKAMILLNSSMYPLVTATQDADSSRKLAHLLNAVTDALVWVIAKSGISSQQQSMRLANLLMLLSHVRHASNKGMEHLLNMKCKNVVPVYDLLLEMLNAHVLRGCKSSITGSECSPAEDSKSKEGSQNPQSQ
UniProt O75469: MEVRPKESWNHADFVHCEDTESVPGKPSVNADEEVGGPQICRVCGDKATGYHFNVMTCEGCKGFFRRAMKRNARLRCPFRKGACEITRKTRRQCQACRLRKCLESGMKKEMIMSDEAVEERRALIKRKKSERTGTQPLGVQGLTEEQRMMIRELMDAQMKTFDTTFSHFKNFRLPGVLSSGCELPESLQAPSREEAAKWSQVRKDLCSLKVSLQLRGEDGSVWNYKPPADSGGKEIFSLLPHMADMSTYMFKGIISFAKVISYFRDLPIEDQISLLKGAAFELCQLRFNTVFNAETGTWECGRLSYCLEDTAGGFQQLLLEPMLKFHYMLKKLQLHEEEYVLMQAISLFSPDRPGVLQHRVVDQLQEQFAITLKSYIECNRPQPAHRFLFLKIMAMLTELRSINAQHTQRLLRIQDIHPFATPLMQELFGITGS
UniProt P22303: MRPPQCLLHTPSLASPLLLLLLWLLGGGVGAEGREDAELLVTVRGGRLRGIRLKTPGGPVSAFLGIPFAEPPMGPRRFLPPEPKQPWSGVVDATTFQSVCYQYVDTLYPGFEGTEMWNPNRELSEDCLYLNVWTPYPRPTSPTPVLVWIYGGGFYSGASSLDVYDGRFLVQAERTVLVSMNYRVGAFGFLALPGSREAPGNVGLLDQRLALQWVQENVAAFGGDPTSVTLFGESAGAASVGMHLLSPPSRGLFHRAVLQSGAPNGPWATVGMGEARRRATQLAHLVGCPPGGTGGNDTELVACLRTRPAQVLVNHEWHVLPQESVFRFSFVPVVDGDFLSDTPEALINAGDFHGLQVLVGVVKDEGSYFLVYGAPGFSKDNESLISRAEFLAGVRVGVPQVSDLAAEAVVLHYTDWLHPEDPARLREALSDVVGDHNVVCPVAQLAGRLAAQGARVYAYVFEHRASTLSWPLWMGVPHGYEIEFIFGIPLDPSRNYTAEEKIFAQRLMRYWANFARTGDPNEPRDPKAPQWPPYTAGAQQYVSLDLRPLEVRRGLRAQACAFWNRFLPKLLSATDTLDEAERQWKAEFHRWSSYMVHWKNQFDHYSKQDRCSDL
UniProt P05177, whole entry, looked up: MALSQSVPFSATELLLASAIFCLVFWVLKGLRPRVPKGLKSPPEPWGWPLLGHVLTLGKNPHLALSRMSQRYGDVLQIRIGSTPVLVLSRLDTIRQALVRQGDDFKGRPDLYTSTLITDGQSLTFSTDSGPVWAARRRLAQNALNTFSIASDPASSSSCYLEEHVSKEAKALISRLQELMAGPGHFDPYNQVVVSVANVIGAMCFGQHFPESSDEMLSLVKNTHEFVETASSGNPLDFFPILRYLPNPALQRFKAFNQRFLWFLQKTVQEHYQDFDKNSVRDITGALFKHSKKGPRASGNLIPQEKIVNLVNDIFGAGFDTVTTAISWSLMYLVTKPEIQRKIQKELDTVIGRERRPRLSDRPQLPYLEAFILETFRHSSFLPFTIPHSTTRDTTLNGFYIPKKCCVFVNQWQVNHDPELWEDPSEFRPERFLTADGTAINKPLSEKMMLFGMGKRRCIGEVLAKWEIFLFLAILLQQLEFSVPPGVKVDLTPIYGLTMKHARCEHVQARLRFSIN

Key:
[1] = qHTS assay for small molecule disruptors of the mitochondrial membrane potential (AID 720635); details: HepG2 mitochondrial membrane potential, Mito-MPS dye ratio; ratio activity, negative = MMP loss: at 83.2 µM (top of the series) unless noted; also: % is scaled to controls: 0 for no effect and ±100 for the full control effect
[2] = target: Vitamin D3 receptor (Homo sapiens) (UniProt P11473); assay: qHTS assay to identify small molecule antagonists of the vitamin D receptor (VDR) signaling pathway (AID 743223; active = well fitted inhibition curve with a large enough effect in the signal ratio in the repeat runs, not every such curve was filed as active; inconclusive = weak or mixed curves, or effect the other way; inactive = no such curve, though single readings can be large or run the other way; the % refers to the signal ratio; also: % is scaled to controls: 0 for no effect and ±100 for the full control effect); details: VDR-UAS-bla HEK293T, beta-lactamase FRET ratio, 16 h; activity change, negative = inhibition: at 61 µM (top of the series)
Method in brief: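 Antagonist mode: compound added to VDR-bla cells alongside agonist 1alpha,25-dihydroxyvitamin D3 (3 nM final), incubation 16 h at 37C. Read-out is LiveBLAzer FRET fluorescence, 2 h at room temperature.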

[3] = qHTS assay to identify small molecule agonists of the retinoic acid receptor (RAR) signaling pathway (AID 1159553); details: C3RL4 RARE luciferase reporter, agonist, 6 h; activation: at 73.3 µM (top of the series); also: % is scaled to controls: 0 for no effect and ±100 for the full control effect
Method in brief: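 Reporter readout comes from luciferase under RARE control in C3RL4 cells; compound exposure lasts 6 hr at 37 C in 5% CO2, and luminescence is recorded following a 30 min room-temperature incubation with reagent.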

[4] = A CellTox Green Cytotoxicity Assay to monitor cytotoxicity in HEK293 cells - 8 hour (AID 1224884); details: CellTox Green fluorescence; also: potency is read from the fitted curve at half-maximal effect; nearly all actives have a fitted effect of over 35% in size
Method in brief: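 Fluorescence intensity, read at 0, 8, 16, 24, 32 and 40 h of compound treatment, reflected dye binding to DNA of dead HEK293 cells; compounds (23 nL, DMSO) were added 5 h after plating cells with reagent.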

[5] = qHTS assay to identify small molecule antagonists of the sonic hedgehog signaling (Shh) pathway (AID 1259369; calls by dose curve; also: potency is read from the fitted curve at half-maximal effect; nearly all actives have a fitted effect of over 45% in size); details: NIH/3T3 Gli1-Luc reporter, Shh antagonist, luminescence 24 h
Method in brief: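 For antagonist detection, the reporter line received test compounds together with conditioned medium, incubated 24hr at 37 C, 5% CO2, then luminescence was recorded following 30min room-temperature luciferase reagent incubation.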

[6] = Caspase-3/7 induction in CHO-K1 cells by small molecules, qHTS cell viability counter screen (AID 1346979); details: CellTiter-Fluor fluorescence, 17 h; also: potency is read from the fitted curve at half-maximal effect; nearly all actives have a fitted effect of over 35% in size
Method in brief: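 Cytotoxicity counter screen: CellTiter-Fluor added to compound-treated wild-type CHO-K1 cells at 16 h (37C, 5% CO2), fluorescence measured 1 h later; same wells as caspase-3/7 measurement.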

[7] = target: Cytochrome P450 2D6 (Homo sapiens) (UniProt P10635); assay: Cytochrome P450 Family 2 Subfamily D Member 6 (CYP2D6) small molecule antagonists: luciferase reporter qHTS assay (AID 1671196); details: P450-Glo CYP2D6 enzyme assay, luciferin luminescence, 1 h; also: potency is read from the fitted curve at half-maximal effect; nearly all actives have a fitted effect of over 50% in size
Method in brief: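 Each well received CYP2D6 with its proluciferin substrate and chemical, sat 10 min, then got NADPH regeneration solution for 1 h at room temperature. Luminescence in RLU served as the activity measure.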

[8] = target: Cytochrome P450 2C19 (Homo sapiens) (UniProt P33261); assay: Cytochrome P450 Family 2 Subfamily C Member 19 (CYP2C19) small molecule antagonists: luciferase reporter qHTS assay (AID 1671197); details: P450-Glo CYP2C19 enzyme, luciferin luminescence, 1 h; also: potency is read from the fitted curve at half-maximal effect; nearly all actives have a fitted effect of over 65% in size
Method in brief: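 CYP2C19 P450-Glo, 1536-well qHTS. Cpd + enzyme/proluciferin substrate 10 min RT; + NADPH regen, 37C 1 h; stop with luciferin detection reagent, 20 min RT, luminescence (RLU). Pos ctrl ketoconazole.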

[9] = target: Cytochrome P450 2C9 (Homo sapiens) (UniProt P11712); assay: Cytochrome P450 Family 2 Subfamily C Member 9 (CYP2C9) small molecule antagonists: luciferase reporter qHTS assay (AID 1671198); details: P450-Glo CYP2C9 enzyme assay, luciferin luminescence; also: potency is read from the fitted curve at half-maximal effect; nearly all actives have a fitted effect of over 50% in size
Method in brief: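 CYP2C9 activity was measured with a P450-Glo proluciferin substrate. Enzyme–substrate mix was held with compound for 10 min at room temperature, then NADPH regeneration solution was added for 1 h at 37C. Luciferin product was read as luminescence.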

[10] = qHTS assay for identifying genotoxic compounds that show differential cytotoxicity against isogenic chicken DT40 cell lines with known DNA damage response pathways - Rad54/Ku70 mutant cell line (AID 743015); details: DT40 Rad54/Ku70 mutant viability, CellTiter-Glo, 40 h; also: potency is read from the fitted curve at half-maximal effect; nearly all actives have a fitted effect of over 60% in size
[11] = qHTS assay to identify small molecule antagonists of the thyroid receptor (TR) signaling pathway (AID 743065); details: GH3.TRE-Luc, T3-stimulated luciferase inhibition, 23.5 h; also: potency is read from the fitted curve at half-maximal effect; nearly all actives have a fitted effect of over 55% in size
Method in brief: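 GH3.TRE-Luc rat pituitary cells carrying two TR response elements driving luciferase were plated for 4 h, given compound plus 1 nM T3 (final), and incubated 23.5 h at 37 C. ONE-Glo luminescence measured reporter inhibition; CellTiter-Fluor fluorescence tracked cytotoxicity.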

[12] = target: Peroxisome proliferator-activated receptor delta (Homo sapiens) (UniProt Q03181); assay: qHTS assay to identify small molecule antagonists of the peroxisome proliferator-activated receptor delta (PPARd) signaling pathway (AID 743215; active = well fitted inhibition curve with a large enough effect in the signal ratio in the repeat runs, not every such curve was filed as active; inconclusive = weak or mixed curves, or effect the other way; inactive = no such curve, though single readings can be large or run the other way; the % refers to the signal ratio;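 also: cells stimulated with agonist L165041 at 300 nM final during compound exposure; potency is read from the fitted curve at half-maximal effect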); details: HEK293H PPARd-UAS-bla, beta-lactamase FRET ratio, antagonist, 17 h; ratio activity, negative = inhibition: at 62 µM (top of the series)
Method in brief: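 HEK293H UAS-bla, PPARd; agonist L165041 300 nM final with cpd in DMSO; 37 C 17 h; FRET substrate, RT 2 h; fluorescence intensity.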

[13] = qHTS assay to identify small molecule agonists of the farnesoid-X-receptor (FXR) signaling pathway - cell viability counter screen (AID 743218); details: FXR-bla HEK293T viability, CellTiter-Glo luminescence, 16 h; viability change, negative = cytotoxic: at 81.1 µM (top of the series); also: potency is read from the fitted curve at half-maximal effect; nearly all actives have a fitted effect of over 45% in size
Method in brief: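 Parallel cytotoxicity test: compound-treated (16 h, 37 C) HEK 293T FXR-bla reporter cells were lysed with CellTiter-Glo and luminescence recorded.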

[14] = qHTS assay to identify small molecule agonists of H2AX - cell viability counter screen (AID 1224847; calls by dose curve; also: potency is read from the fitted curve at half-maximal effect; nearly all actives have a fitted effect of over 30% in size); details: CHO-K1 viability, CellTiter-Glo luminescence, 3 h
Method in brief: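 Counter-screen for viability: CellTiter-Glo ATP luminescence read after 3 h compound treatment (15-point titration, 0.76% DMSO final) of CHO-K1 cells at 37C, with 30 min room-temperature reagent incubation.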

[15] = qHTS assay to identify small molecule antagonists of the estrogen related receptor (ERR) signaling pathway from Tox21 library (AID 1224848); details: ERR reporter cell line, luciferase antagonist mode, 18 h; also: potency is read from the fitted curve at half-maximal effect; nearly all actives have a fitted effect of over 50% in size
Method in brief: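 Cells: ERR line, 2,000/well; 6 h preincubation 37 C/5% CO2. Cpd in DMSO via pin tool; 18 h, 37 C. ONE-Glo, 30 min RT, luminescence.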

[16] = target: Estrogen receptor beta (Homo sapiens) (UniProt Q92731); assay: qHTS assay to identify small molecule antagonists of the estrogen receptor beta (ER-beta) signaling pathway (AID 1259378; active = well fitted inhibition curve with a large enough effect in the signal ratio in the repeat runs, not every such curve was filed as active; inconclusive = weak or mixed curves, or effect the other way; inactive = no such curve, though single readings can be large or run the other way; the % refers to the signal ratio; also: % is scaled to controls: 0 for no effect and ±100 for the full control effect); details: ER-beta-UAS-bla HEK293T, beta-lactamase FRET ratio, 16 h; at 92.4 µM (top of the series)
Method in brief: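 ER-beta-UAS-bla HEK293T (GripTite) cells in 2% charcoal-stripped FBS medium were preincubated 6 hr at 37C, dosed with compound, then stimulated with 1 nM E2 (final) for 16 hr; beta-lactamase reporter read by B/G FRET fluorescence after 2 hr substrate loading.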

[17] = Caspase-3/7 induction in HepG2 cells by small molecules, qHTS cell viability counter screen (AID 1346981); details: CellTiter-Fluor fluorescence, 17 h; also: potency is read from the fitted curve at half-maximal effect; nearly all actives have a fitted effect of over 30% in size
Method in brief: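 Viability determined by CellTiter-Fluor fluorescence in HepG2 wells also used for the luminescent Caspase-Glo 3/7 read. Compounds were present for 16 hr at 37 C, 5% CO2 before reagent addition.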

[18] = target: Nuclear receptor subfamily 1 group I member 2 (Homo sapiens) (UniProt O75469); assay: Human pregnane X receptor (PXR) small molecule agonists, qHTS assay (AID 1346982); details: PXR-Luc HepG2, CYP3A4 luciferase reporter, 24 h; also: potency is read from the fitted curve at half-maximal effect; nearly all actives have a fitted effect of over 35% in size
Method in brief: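 Compound-induced hPXR transactivation of a CYP3A4 luciferase reporter was scored in HepG2 PXR-Luc cells over 24 hr at 37 C, 5% CO2, by luminescence.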

[19] = target: Acetylcholinesterase (Homo sapiens) (UniProt P22303); assay: Acetylcholinesterase (AChE) small molecule antagonists: fluorescence cell-based qHTS assay (AID 1347398; calls by dose curve; also: potency is read from the fitted curve at half-maximal effect; nearly all actives have a fitted effect of over 50% in size); details: SH-SY5Y cells, AChE activity
Method in brief: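 Human SH-SY5Y cells were plated overnight at 37 C, exposed to compound for 30 min at 37 C, 5% CO2, then given acetylthiocholine plus Thiolite Green for 40 min at room temperature; thiocholine fluorescence (Ex/Em 490/520 nm) reports endogenous AChE activity.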

[20] = target: Cytochrome P450 1A2 (Homo sapiens) (UniProt P05177); assay: Cytochrome P450 Family 1 Subfamily A Member 2 (CYP1A2) small molecule antagonists: luciferase reporter qHTS assay (AID 1671199); details: P450-Glo CYP1A2 enzyme, luciferin luminescence, 1 h

O=[p+]1oc2ccccc2c2ccccc21 (stereo unspecified)
inconclusive: ratio activity, negative = MMP loss [1] -5.87% | activity change, negative = inhibition [2] 1.08% | activation [3] -0.0995% | Potency [4] 61.3 µM | Potency [5] 68.2 µM | Potency [6] 68.2 µM | Potency [7] 39.7 µM | Potency [8] 88.9 µM | Potency [9] 44.6 µM

CC(C)CCCCCCCOP(OCCCCCCCC(C)C)Oc1ccccc1
inconclusive: ratio activity, negative = MMP loss [1] -29.7% | Potency [10] 17.2 µM | Potency [11] 30.6 µM | Potency [12] 49 µM | Potency [13] 3.47 µM | Potency [14] 127 µM | Potency [15] 68.6 µM | activity, negative = inhibition [16] -32.1% | Potency [17] 30.6 µM | Potency [18] 27.3 µM | Potency [19] 39.9 µM | Potency [20] 63.3 µM
